Sequences of proteins named here, by UniProt entry; tags and fusion partners are left off. Residues count along the entry.
UniProt O75460, 19-977: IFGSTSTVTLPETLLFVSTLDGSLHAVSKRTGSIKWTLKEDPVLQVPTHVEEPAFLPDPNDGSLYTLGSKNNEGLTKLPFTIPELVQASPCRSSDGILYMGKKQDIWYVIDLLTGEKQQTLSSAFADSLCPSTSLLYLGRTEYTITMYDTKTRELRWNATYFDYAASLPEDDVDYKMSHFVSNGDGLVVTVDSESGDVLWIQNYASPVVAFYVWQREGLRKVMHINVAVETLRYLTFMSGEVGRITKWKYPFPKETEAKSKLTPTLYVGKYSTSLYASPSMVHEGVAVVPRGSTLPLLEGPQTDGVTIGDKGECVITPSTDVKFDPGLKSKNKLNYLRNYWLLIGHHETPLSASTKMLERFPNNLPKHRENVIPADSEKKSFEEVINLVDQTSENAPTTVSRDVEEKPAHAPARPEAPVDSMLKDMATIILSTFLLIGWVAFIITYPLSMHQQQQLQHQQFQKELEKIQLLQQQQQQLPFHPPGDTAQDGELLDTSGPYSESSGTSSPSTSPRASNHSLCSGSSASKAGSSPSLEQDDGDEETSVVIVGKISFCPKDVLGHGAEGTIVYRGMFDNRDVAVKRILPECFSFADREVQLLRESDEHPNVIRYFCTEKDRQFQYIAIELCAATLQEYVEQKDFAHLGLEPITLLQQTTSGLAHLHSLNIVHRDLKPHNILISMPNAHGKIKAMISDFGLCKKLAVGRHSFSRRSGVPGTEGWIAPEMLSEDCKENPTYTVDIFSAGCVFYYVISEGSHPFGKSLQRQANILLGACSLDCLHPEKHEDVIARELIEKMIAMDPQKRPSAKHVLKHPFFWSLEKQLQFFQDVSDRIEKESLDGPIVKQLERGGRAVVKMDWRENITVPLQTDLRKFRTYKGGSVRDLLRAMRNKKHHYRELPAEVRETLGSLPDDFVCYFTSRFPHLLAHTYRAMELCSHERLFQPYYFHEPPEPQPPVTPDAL

According to patent US20260345623A1, “NOVEL TRICYCLIC HETEROCYCLIC CARBALDEHYDE COMPOUND AND PHARMACEUTICAL COMPOSITION, CONTAINING SAME, FOR IRE1alpha INHIBITION” (HANMI PHARM. CO., LTD., priority 2022, published 2026):

Biological target: T1, spliced XBP1 mRNA (target of IRE endonuclease) in MCF-7 cancer cells (Homo sapiens, UniProt O75460)
T1 construct: tunicamycin ER stress; RT-PCR of spliced XBP1 mRNA (RNase domain activity)
Assay: Spliced XBP1 mRNA Measurement Test (RT-PCR, tunicamycin-induced ER stress, MCF-7 cells)
Format: cell-based
Conditions: 1 hour pre-treatment with compound, 2 μg/mL tunicamycin 6 or 24 hours, spliced XBP1 corrected by total XBP1
Experimental: With respect to these synthetic compounds, reverse transcription polymerase chain reaction (RT-PCR) experiments were conducted on MCF-7 cancer cells to confirm the effect thereof on the mRNA and protein amounts of spliced XBP1, which is the target of IRE endonuclease. A reverse transcription polymerase chain reaction is a test method in which RNA is extracted from cells, reverse transcriptase is used to make cDNA, and relative mRNA expression level is measured through a polymerase chain reaction.
Briefly, MCF-7 cells were seeded in a 12-well plate and cultured in an incubator including 5% CO2 for one day. On the next day, compounds, which were 10-fold serially diluted from 10,000 nM, were pre-treated for 1 hour, and then, treated with 2 μg/mL tunicamycin for 6 or 24 hours to induce endoplasmic reticulum stress, followed by cell lysis to obtain RNA. […] The amount of mRNA of each of spliced XBP1 and total XBP1 was measured by a polymerase chain reaction through real time PCR by mixing each cDNA sample with a PCR reaction mixture including a primer pair capable of binding specifically to each target and SYBR green dye. The expression level of spliced XBP1 was corrected by the total expression level of XBP1, and the relative expression levels of spliced XBP1 between samples were compared and analyzed. […]

With COc1cc2c(C)c(CC(=O)N3CCOCC3)c(=O)oc2c(C=O)c1O [MKC8866, reference compound] the IC50 was < 100 nM.
